Binding of CDR-mutated scFvs to a peptide of the spike HR2 region

From the AlphaSeq antibody data of Engelhart et al. 2022 (doi:10.1038/s41597-022-01779-4), copy in the FLAb collection.

The target is the same throughout: PDVDLGDISGINAS, from the HR2 region of SARS-CoV-2 spike.

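The starting antibody came from a phage panning campaign against this peptide. In library AAYL50, one, two or three CDR residues were substituted; doubles and triples were drawn at random. The scFvs were displayed on barcoded MATa yeast, the peptide on MATalpha yeast. Pairs that bind mate more often; barcode pairs of the diploids are counted by sequencing. Each replicate has its own calibration line, from reference interactions of the BCL2 family. There are three technical replicates.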

Ab-14 is the parent antibody, in scFv form: VH, then a 15-residue (Gly4Ser)3 linker, then VL. The heavy chain is unchanged in all variants.
VH: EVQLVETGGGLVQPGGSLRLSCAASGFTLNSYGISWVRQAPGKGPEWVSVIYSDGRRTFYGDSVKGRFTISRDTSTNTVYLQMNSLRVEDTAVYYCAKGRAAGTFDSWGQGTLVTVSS
VL: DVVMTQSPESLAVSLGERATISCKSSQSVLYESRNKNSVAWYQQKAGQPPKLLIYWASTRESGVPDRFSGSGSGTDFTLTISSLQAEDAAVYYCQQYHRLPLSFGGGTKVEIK

The whole VL of each variant is written out. Affinities are written as log10 Kd with Kd in nM; a lower number is a better binder. Where no diploid with the target was found in that replicate, the entry reads "nd": below detection, most likely a poor binder, though not proof of it.

| VL | log10 Kd (nM) by replicate | empty controls |
|---|---|---|
| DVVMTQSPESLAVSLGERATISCKSSLSVLYESRNKESVAWYQQKAGQPPKLLIYWASTRESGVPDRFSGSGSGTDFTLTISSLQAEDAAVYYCQHYHRLPLSFGGGTKVEIK | 1.38 1.50 1.53 | 3/9 (4.25) |
| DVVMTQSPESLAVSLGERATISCKSSQSVLYESRNKNSRAWYQQKAGQPPKLLIYWASTREAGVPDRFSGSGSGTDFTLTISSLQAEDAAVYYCQQEHRLPLSFGGGTKVEIK | nd nd nd | 2/9 (4.79) |
| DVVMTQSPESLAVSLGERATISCKSSQSVLYESRNKNSVAWYQQKAGQPPKLLIYWASTRESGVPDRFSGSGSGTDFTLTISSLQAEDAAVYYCQDYHRLPLPFGGGTKVEIK | 0.54 0.59 0.57 | 7/9 (5.23) |
| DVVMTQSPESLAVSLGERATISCKSSQSVRYESRNKNSCAWYQQKAGQPPKLLIYWASTRESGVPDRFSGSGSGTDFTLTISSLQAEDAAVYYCQQYHRLPASFGGGTKVEIK | 4.53 3.15 nd | 2/9 (4.20) |
| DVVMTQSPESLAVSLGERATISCKSSQAVLYESRNKNSVDWYQQKAGQPPKLLIYWASTRESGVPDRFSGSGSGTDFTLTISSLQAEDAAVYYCQQYHRLPLYFGGGTKVEIK | nd nd nd | 1/9 (3.40) |
| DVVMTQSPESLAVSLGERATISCESSQSVLYQSRNKNSVAWYQQKAGQPPKLLIYWASTRFSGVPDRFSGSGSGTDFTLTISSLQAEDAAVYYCQQYHRLPLSFGGGTKVEIK | 0.32 0.59 0.47 | 2/9 (4.16) |
| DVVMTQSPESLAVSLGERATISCKSSQSVLYESHNKNSVAWYQQKAGQPPKLLIYSASTRESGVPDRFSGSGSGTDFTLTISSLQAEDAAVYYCQQYFRLPLSFGGGTKVEIK | nd 3.44 nd | 1/9 (4.82) |
| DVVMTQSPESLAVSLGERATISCKSSQSVLYESRNKNSVAWYQQKAGQPPKLLIYWASTNESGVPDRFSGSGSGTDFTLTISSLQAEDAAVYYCQQYHRLPLSFGGGTKVEIK | 6.00 5.37 3.81 | 2/9 (5.04) |
| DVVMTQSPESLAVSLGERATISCKSSQSKLYESRRKNSVAWYQQKAGQPPKLLIYWASTRESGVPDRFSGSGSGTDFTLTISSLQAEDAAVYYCDQYHRLPLSFGGGTKVEIK | nd nd nd | 0/9 |
| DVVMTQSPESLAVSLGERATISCKSSQSVLYESRNKNSVAWYQQKAGQPPKLLIYYASTRESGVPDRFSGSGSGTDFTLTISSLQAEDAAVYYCQQYDRLPLSFGGGTKVEIK | 0.26 0.70 0.57 | 1/9 (5.28) |
| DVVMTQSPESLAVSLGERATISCKSSQPVTYESRNKNSVAWYQQKAGQPPKLLIYWGSTRESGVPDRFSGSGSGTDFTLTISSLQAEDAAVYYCQQYHRLPLSFGGGTKVEIK | -0.16 0.11 -0.11 | 0/9 |
| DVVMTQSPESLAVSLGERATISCKSSQSVLYQQRNKNSVAWYQQKAGQPPKLLIYWASTRESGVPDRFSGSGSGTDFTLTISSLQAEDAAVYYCQQYHRLDLSFGGGTKVEIK | nd nd nd | 0/9 |
| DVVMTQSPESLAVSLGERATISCKSSQSVLYESRNKGSVRWYQQKAGQPPKLLIYWASTRESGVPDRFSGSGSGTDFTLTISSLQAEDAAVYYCQQVHRLPLSFGGGTKVEIK | nd nd nd | 1/9 (2.54) |
| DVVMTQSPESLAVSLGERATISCKSSQSVLYESRMKNSVAWYQQKAGQPPKLLIYWAKTRESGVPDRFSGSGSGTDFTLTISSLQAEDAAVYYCQQYHSLPLSFGGGTKVEIK | 2.93 2.87 3.36 | 0/9 |
| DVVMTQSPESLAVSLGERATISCKTSQSVLYESRNKNSVVWYQQKAGQPPKLLIYWASYRESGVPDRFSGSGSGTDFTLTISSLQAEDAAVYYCQQYHRLPLSFGGGTKVEIK | nd nd 5.28 | 5/9 (4.64) |
| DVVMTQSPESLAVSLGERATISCKSSQSVLYESRNKNSVAWYQQKAGQPPKLLIYWASTRESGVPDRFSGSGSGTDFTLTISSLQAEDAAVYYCTQYHRPKLSFGGGTKVEIK | 3.52 nd nd | 2/9 (4.23) |
| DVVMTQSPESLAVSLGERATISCDSSQSVLYESRNKNSVAWYQQKAGQPPKLLIYWYSTRESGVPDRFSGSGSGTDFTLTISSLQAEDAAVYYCQQYHRLMLSFGGGTKVEIK | nd nd 3.69 | 1/9 (4.07) |
| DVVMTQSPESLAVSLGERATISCKSSQSVLYESRNKNSVFWYQQKAGQPPKLLIYCASTRESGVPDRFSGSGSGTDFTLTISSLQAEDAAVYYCQQYHRLPGSFGGGTKVEIK | nd nd nd | 0/9 |
| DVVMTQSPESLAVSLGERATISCKSSQSVLYESRNKNSVAWYQQKAGQPPKLLIYWMNTRESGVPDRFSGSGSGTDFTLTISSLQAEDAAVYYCQQYHRSPLSFGGGTKVEIK | 1.38 1.74 1.58 | 5/9 (3.99) |
| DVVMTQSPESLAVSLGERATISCKSSQVVLYESRNKNSVAWYQQKAGQPPKLLIYCASTRESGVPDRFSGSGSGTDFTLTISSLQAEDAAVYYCQQQHRLPLSFGGGTKVEIK | 1.99 2.57 2.53 | 1/9 (5.01) |
| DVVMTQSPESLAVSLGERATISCKSSQSVLYESRNHNSVAWYQQKAGQPPKLLIYWASNRESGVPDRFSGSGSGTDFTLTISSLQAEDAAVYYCQSYHRLPLSFGGGTKVEIK | 2.35 2.72 2.63 | 2/9 (4.06) |
| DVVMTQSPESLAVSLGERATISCKSSQSVLYESRKKNSVAWYQQKAGQPPKLLIYHASTRESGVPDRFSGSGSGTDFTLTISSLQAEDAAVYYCQQYHRLPESFGGGTKVEIK | nd nd 5.24 | 2/9 (3.62) |
| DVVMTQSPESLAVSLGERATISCKSSQSVLYPSRQKNSVAWYQQKAGQPPKLLIYWASTRESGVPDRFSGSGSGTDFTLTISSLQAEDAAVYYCQQYPRLPLSFGGGTKVEIK | 2.95 3.26 3.30 | 3/9 (3.75) |
| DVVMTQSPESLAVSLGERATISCKSSQHVLRESRGKNSVAWYQQKAGQPPKLLIYWASTRESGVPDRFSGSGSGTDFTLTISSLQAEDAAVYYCQQYHRLPLSFGGGTKVEIK | 3.48 2.86 2.87 | 2/9 (4.17) |

Top 3 of the variants detected in all replicates, tightest first:

| VL | log10 Kd (nM) by replicate | empty controls |
|---|---|---|
| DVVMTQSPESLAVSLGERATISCKSSQPVTYESRNKNSVAWYQQKAGQPPKLLIYWGSTRESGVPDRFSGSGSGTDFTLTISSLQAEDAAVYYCQQYHRLPLSFGGGTKVEIK | -0.16 0.11 -0.11 | 0/9 |
| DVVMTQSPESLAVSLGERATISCESSQSVLYQSRNKNSVAWYQQKAGQPPKLLIYWASTRFSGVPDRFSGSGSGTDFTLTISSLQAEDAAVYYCQQYHRLPLSFGGGTKVEIK | 0.32 0.59 0.47 | 2/9 (4.16) |
| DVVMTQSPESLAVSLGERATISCKSSQSVLYESRNKNSVAWYQQKAGQPPKLLIYYASTRESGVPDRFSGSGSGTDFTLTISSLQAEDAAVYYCQQYDRLPLSFGGGTKVEIK | 0.26 0.70 0.57 | 1/9 (5.28) |

Empty control strains, which show no peptide, gave a signal in 18% of pairings with library AAYL50; the median was 4.19 and 95% of these signals were weaker than 2.99. No background was subtracted. The control count says in how many pairings with the empty strains this scFv gave a signal, with their mean in brackets.